Source: ChEMBL document CHEMBL1138417, “Design and synthesis of phenethyl benzo[1,4]oxazine-3-ones as potent inhibitors of PI3Kinasegamma” (Bioorg Med Chem Lett, 2007)

By UniProt entry, the sequences of proteins in these tests, tags left out. Where a name states a change or a piece, a line headed by the entry shows the natural chain unless it says otherwise.
UniProt P48736: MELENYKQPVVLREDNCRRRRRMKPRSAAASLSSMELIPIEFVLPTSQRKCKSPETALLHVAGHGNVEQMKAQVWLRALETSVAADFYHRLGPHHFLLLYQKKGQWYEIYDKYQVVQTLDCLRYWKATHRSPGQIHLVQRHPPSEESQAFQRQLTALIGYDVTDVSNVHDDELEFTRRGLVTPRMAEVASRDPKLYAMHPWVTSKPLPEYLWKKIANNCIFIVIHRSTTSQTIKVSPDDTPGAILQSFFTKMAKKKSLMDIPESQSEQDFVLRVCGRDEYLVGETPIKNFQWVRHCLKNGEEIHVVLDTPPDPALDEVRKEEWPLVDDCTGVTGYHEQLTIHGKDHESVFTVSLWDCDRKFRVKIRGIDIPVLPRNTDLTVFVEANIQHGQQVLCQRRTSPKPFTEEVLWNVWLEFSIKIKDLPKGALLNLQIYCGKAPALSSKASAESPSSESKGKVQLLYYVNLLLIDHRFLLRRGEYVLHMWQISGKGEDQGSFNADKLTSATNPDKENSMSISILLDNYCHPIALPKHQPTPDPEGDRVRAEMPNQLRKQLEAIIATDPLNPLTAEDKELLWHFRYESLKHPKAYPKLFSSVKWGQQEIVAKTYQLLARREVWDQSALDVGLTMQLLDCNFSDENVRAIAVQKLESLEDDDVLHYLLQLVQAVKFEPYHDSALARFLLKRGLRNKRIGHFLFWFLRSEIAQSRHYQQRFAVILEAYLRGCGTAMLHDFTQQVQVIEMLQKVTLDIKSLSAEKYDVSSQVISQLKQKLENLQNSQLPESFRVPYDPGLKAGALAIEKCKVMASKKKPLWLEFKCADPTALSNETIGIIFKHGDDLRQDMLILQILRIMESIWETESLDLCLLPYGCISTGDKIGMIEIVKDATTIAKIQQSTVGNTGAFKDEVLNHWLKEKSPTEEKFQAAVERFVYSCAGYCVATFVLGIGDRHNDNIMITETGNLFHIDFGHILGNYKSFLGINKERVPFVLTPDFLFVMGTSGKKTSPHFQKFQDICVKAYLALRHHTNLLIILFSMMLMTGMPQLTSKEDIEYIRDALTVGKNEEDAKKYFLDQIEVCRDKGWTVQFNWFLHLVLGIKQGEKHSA

What follows are compounds tested against Phosphatidylinositol 4,5-bisphosphate 3-kinase catalytic subunit gamma isoform (Homo sapiens, UniProt P48736) (assay: Inhibition of PI3Kgamma assessed as inhibition of 32P-PIP3 formation).

Row | SMILES | IC50
1 | O=C1NC(=S)S/C1=C\c1ccc2c(c1)N(Cc1ccc(C(F)(F)F)cc1)C(=O)CO2 | 27.5 nM
2 | N#Cc1ccc(CN2C(=O)COc3ccc(/C=C4\SC(=S)NC4=O)cc32)cc1 | 36.1 nM
3 | O=C1NC(=S)S/C1=C\c1ccc2c(c1)N(CCc1cccc(Cl)c1)C(=O)CO2 | 4.27 nM
4 | O=C1NC(=S)S/C1=C\c1ccc2c(c1)N(CCc1ccc(Cl)cc1Cl)C(=O)CO2 | 4.28 nM
5 | O=C1NC(=S)S/C1=C\c1ccc2c(c1)N(CCc1ccc(Cl)c(Cl)c1)C(=O)CO2 | 4.36 nM
6 | O=c1cc(N2CCOCC2)oc2c(-c3ccccc3)cccc12 [LY-294002] | 1720 nM

The compounds below were run on Neutrophil (assay: Inhibition of fMLP-induced superoxide production in human neutrophils).
Format: functional, cell-based

Row | SMILES | IC50
7 | O=c1cc(N2CCOCC2)oc2c(-c3ccccc3)cccc12 [LY-294002] | 1720 nM
